Chains of the proteins cited; added tags and fusions are not shown. Lines headed by an entry give the natural chain unless they say otherwise; changes in a name come on top.
UniProt P41144: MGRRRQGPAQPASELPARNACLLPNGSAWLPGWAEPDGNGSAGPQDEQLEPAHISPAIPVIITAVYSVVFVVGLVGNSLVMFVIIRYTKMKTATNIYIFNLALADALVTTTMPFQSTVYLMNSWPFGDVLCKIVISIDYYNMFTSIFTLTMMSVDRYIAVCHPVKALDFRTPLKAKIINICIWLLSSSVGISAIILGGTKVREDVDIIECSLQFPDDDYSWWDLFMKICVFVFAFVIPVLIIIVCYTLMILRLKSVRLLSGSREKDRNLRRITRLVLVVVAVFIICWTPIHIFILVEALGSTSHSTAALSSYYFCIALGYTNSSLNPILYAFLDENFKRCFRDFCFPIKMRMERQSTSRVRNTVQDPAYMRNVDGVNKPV
UniProt P97266, whole entry, looked up: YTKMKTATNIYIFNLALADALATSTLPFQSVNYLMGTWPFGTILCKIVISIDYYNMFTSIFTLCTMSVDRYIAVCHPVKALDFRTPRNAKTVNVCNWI

In ChEMBL document CHEMBL1127447, “Isothiocyanate-substituted kappa-selective opioid receptor ligands derived from N-methyl-N-[(1S)-1-phenyl-2-(1-pyrrolidinyl)ethyl] phenylacetamide” (1994):

Legend:
[1] = biological target: T1, Kappa-type opioid receptor (Cavia porcellus, UniProt P41144); test: Tested for inhibitory concentration against [3H]U-69593 binding at sites kappa-opioid receptor in guinea pig brain membrane
Mu-type opioid receptor = Mu-type opioid receptor (Cavia porcellus, UniProt P97266); test: Tested for inhibitory concentration against [3H]DAMGO binding at sites of mu-opioid receptor in guinea pig brain membrane
[2] = biological target: T1, Kappa-type opioid receptor; test: Tested for inhibitory concentration against [3H]U-69593 binding at sites of kappa-opioid receptor in guinea pig brain membrane
[3] = Tested for inhibitory concentration against [3H]bremazocine binding to total sites of opioid receptor in guinea pig brain membrane
[4] = biological target: T1, Kappa-type opioid receptor; test: Tested for inhibitory concentration against [3H]U-69593 binding at kappa-opioid receptor sites in guinea pig brain membrane

## CN(C(=O)Cc1ccc(N=C=S)cc1)[C@H](CN1CCCC1)c1ccccc1 [listing 1 of 2 here]
[1]
  IC50: 14 nM
Mu-type opioid receptor
  IC50: 730 nM

## CN(C(=O)Cc1cccc(N=C=S)c1)[C@H](CN1CCCC1)c1ccccc1
[2]
  IC50: 3.3 nM
[3]
  IC50: 54 nM
Mu-type opioid receptor
  IC50: 5100 nM

## CN(C(=O)Cc1cc(Cl)c(Cl)cc1N=C=S)[C@H](CN1CCCC1)c1ccccc1 [listing 1 of 2 here]
[3]
  IC50: 54 nM

## CN(C(=O)Cc1ccccc1)[C@H]1CC[C@@]2(CCCO2)C[C@@H]1N1CCCC1
[2]
  IC50: 2.1 nM
[3]
  IC50: 140 nM
Mu-type opioid receptor
  IC50: 1760 nM

## CN(C(=O)Cc1ccc(Cl)c(Cl)c1)[C@H](CN1CCCC1)c1ccc(N=C=S)cc1
[2]
  IC50: 1.8 nM
[3]
  IC50: 430 nM
Mu-type opioid receptor
  IC50: > 1000 nM

## CN(C(=O)Cc1ccc(N=C=S)cc1)[C@H](CN1CCCC1)c1ccccc1 [listing 2 of 2 here]
[3]
  IC50: 53 nM

## CN(C(=O)Cc1ccccc1N=C=S)[C@H](CN1CCCC1)c1ccccc1 [listing 1 of 2 here]
[3]
  IC50: 58 nM

## CN(C(=O)Cc1ccccc1N=C=S)[C@H](CN1CCCC1)c1ccccc1 [listing 2 of 2 here]
[4]
  IC50: 2.3 nM
Mu-type opioid receptor
  IC50: > 1000 nM

## CN(C(=O)Cc1ccccc1)[C@H](CN1CCCC1)c1ccccc1
[2]
  IC50: 1.4 nM
[3]
  IC50: 63 nM
Mu-type opioid receptor
  IC50: > 1000 nM

## CN(C(=O)Cc1cc(Cl)c(Cl)cc1N=C=S)[C@H](CN1CCCC1)c1ccccc1 [listing 2 of 2 here]
[2]
  IC50: 9.5 nM
Mu-type opioid receptor
  IC50: 1250 nM

## CC(C)C[C@H](NC(=O)[C@H](Cc1ccccc1)NC(=O)CNC(=O)[C@@H](CO)NC(=O)[C@@H](N)Cc1ccc(O)cc1)C(=O)N[C@H](C(=O)O)[C@@H](C)O
[2]
  IC50: 600 nM
[3]
  IC50: 1040 nM
Mu-type opioid receptor
  IC50: 73 nM

## CN(C(=O)Cc1ccc(Cl)c(Cl)c1)[C@H](CN1CCCC1)c1ccccc1
[2]
  IC50: 1.5 nM
[3]
  IC50: 11 nM
Mu-type opioid receptor
  IC50: 150 nM
